Yeast mating assay 1: variants of the scFv Ab-14

From the AlphaSeq antibody data of Engelhart et al. 2022 (doi:10.1038/s41597-022-01779-4), copy in the FLAb collection.

The target is the same throughout: PDVDLGDISGINAS, from the HR2 region of SARS-CoV-2 spike.

The variants keep the heavy chain, the linker and the frameworks of Ab-14 (scFv order VH, three GGGGS repeats, VL).
VH: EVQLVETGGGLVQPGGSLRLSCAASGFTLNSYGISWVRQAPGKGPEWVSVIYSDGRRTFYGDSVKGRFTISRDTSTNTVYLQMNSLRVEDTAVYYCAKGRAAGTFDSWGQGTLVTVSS
VL: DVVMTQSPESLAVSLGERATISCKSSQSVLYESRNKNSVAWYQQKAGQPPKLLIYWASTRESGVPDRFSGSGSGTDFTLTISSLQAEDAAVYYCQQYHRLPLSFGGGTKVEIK

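The parent was found by panning a naive human phage display library on the peptide. AAYL50 was designed without a model: most single CDR substitutions and a random sample of double and triple ones. The assay is AlphaSeq: two haploid yeast populations carry antibody and antigen on their surface. Binding brings cells together so that they mate, and sequencing counts the barcode pairs among the diploids. Read counts were normalised to the haploid input and turned into Kd by a linear fit to BCL2-family pairs of known affinity, for each replicate. The assay was run in three technical replicates.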

Changes read parent residue, position, new residue, counted from the first residue of the VL shown. All variants listed here change A40 of the VL, counted from its first residue. Each Kd is an estimate from the mating assay, the geometric mean of the replicates in which the pair was seen; lower is stronger. "nd" means that the variant was in the library but no mating with the target was seen in any replicate; the authors take this as a sign of poor binding, and no number exists. Parent in this assay: reference entry 4.4 nM, copy in this library 48 nM. Three control strains display no target. For library AAYL50, 18% of the pairings with them gave a signal, with a median of 15 µM and one signal in twenty below 970 nM, so weak values seen in few replicates may be background.

- A40L W56F S62D: 60 µM (2 of 3 replicates)
- K24L V39L A40Y: 5.7 µM (1 of 3 replicates)
- S28V A40H W56N: 94 nM (3 of 3 replicates)
- A40G T59I L102P: 110 µM (3 of 3 replicates)
- S38E A40L S103E: 150 µM (2 of 3 replicates)
- S33L A40W E61L: nd (0 of 3 replicates)
- A40R Q95F Q96G: nd (0 of 3 replicates)
- Q27P S28W A40T: nd (0 of 3 replicates)
- V29A A40N W56H: 23 µM (2 of 3 replicates)
- A40P T59Y: nd (0 of 3 replicates)
- E32H A40L Q95C: nd (0 of 3 replicates)
- A40M H98F P101D: 48 µM (3 of 3 replicates)
- S26I A40E Y97D: 120 µM (1 of 3 replicates)
- K24R A40Y S103D: nd (0 of 3 replicates)
- A40W W56M S103K: nd (0 of 3 replicates)
- A40E Q95C Q96S: nd (0 of 3 replicates)
- K24L N35P A40K: nd (0 of 3 replicates)
- A40H A57D Q95N: 140 µM (1 of 3 replicates)
- V29R A40C R60Y: 120 µM (1 of 3 replicates)
- S26L A40Y: 36 µM (2 of 3 replicates)
- A40V E61D: 8.5 µM (1 of 3 replicates)
- K36P A40Q R60L: 16 µM (2 of 3 replicates)
- L30W A40P T59R: nd (0 of 3 replicates)
- Y31W A40K S103W: 140 µM (2 of 3 replicates)
- S26E A40F R99L: nd (0 of 3 replicates)
- S28K A40E P101K: 1.7 mM (1 of 3 replicates)
- S38M A40D L102S: 2.5 µM (1 of 3 replicates)
- N35G A40W P101I: nd (0 of 3 replicates)
- S26I A40R: nd (0 of 3 replicates)
- A40W A57H T59P: nd (0 of 3 replicates)
- R34F A40D S103V: nd (0 of 3 replicates)
- N37C V39A A40S: nd (0 of 3 replicates)
- V29C A40R Y97T: nd (0 of 3 replicates)
- S28I A40G Y97M: nd (0 of 3 replicates)
- R34Y A40R Q96H: nd (0 of 3 replicates)
- K36N A40C Q95H: 20 µM (1 of 3 replicates)
- V39N A40K: 10 µM (2 of 3 replicates)
- Y31F K36A A40R: nd (0 of 3 replicates)
- K24L A40N R99A: nd (0 of 3 replicates)
- Y31M N35Y A40W: nd (0 of 3 replicates)
- S28A A40E L102F: 11 µM (1 of 3 replicates)
- L30E K36D A40R: 42 µM (2 of 3 replicates)
- K24T Q27Y A40D: 240 µM (1 of 3 replicates)
- A40W Q95A H98Y: 14 µM (2 of 3 replicates)
- A40C E61C: 680 nM (2 of 3 replicates)
- S38I A40Y L102M: 21 µM (1 of 3 replicates)
- S26N A40Q A57Y: 49 µM (1 of 3 replicates)

The opening 3 entries, copied out:

- A40L W56F S62D -> 60 µM (2 of 3 replicates)
- K24L V39L A40Y -> 5.7 µM (1 of 3 replicates)
- S28V A40H W56N -> 94 nM (3 of 3 replicates)